A selection: hits, their analogues and other compounds. The true share with any hit is near 13%.
LMNA splice mod = modulators of lamin A splicing. HeLa LMNA splicing GFP/RFP minigene ratio, 48 h. Potency, µM (titrated, usually from 46.1 µM), without a hit: at the highest dose ratio change, negative = inhibition, hits mostly inhibitors. hit rate 0.01% among 200,000; active = well fitted inhibition curve with a large enough effect in the signal ratio, with a control signal flat, not every such curve was filed as active; inconclusive = small, poorly fitted or top-dose-only effect, or effect the other way, or a change in a side signal; the % refers to the signal ratio; note: potency is the fitted concentration of half-maximal effect; % is set by controls: 0 for no effect and ±100 for the full control effect
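Read-out is the ratio of GFP to DsRed2 object intensity, acquired by 488 nm laser-scanning cytometry on HeLa lamin A-EGFP minigene reporter cells. Compound incubation 48 hrs at 37 °C in Opti-MEM with 2% FBS; DMSO 0.5% final.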
Sfp inh = inhibitors of Bacillus subtilis Sfp phosphopantetheinyl transferase | Q9F4F7 | Biochemical Sfp PPTase activity, qHTS | Potency, µM, inactives show max response, negative = inhibition, most hits filed as inhibitors | 310,000 tested, 3.5% active | AID 1490; active = well fitted inhibition curve with a large enough effect; inconclusive = small, poorly fitted or top-dose-only effect, or another doubt; inactive = no such curve, though single readings can be large or run the other way;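 note: the enzyme is Sfp with the accession as filed and its product quenches rhodamine fluorescence; potency is the fitted concentration of half-maximal effect; 0% = enzyme reaction without inhibitor and -100% = no enzyme wells; top concentration of the series not given in the record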
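Sfp 15 nM + cpd, 15 min RT; start w/ rhodamine-CoA 5 uM, BHQ-2-YbbR 12.5 uM (final); 50 mM Hepes pH 7.6, 10 mM MgCl2, 0.01% NP-40, 0.01% BSA; read 525/598 nm at 0 and 30 min.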
JMJD2E inh = blocks human JMJD2E demethylase activity | B2RXH2 | JMJD2E catalytic domain, FDH-coupled NADH fluorescence (FDH is formaldehyde dehydrogenase) | Potency, µM (series often up to 57.1 µM), without a hit: at the highest dose activity change, negative = inhibition, actives largely listed as inhibitors | hit rate 1.6% among 230,000 | AID 2147; active = well fitted inhibition curve with a large enough effect, not every such curve was filed as active; inconclusive = small, poorly fitted or top-dose-only effect, or another doubt; inactive = no such curve, though single readings can be large or run the other way;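 note: potency is the fitted concentration of half-maximal effect; 0% = wells with enzyme and -100% = buffer wells without enzyme; nearly all actives have a fitted effect of over 50% in size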
ALDH1A1 block = ALDH1A1 (human) enzyme inhibition; Purified ALDH1A1, NADH fluorescence, propionaldehyde substrate; Potency, µM (titrated, usually from 75.3 µM), for inactives: top-dose activity, negative = inhibition, most hits filed as inhibitors; hit rate 7.3% among 220,000; active = well fitted inhibition curve with a large enough effect, not every such curve was filed as active; inconclusive = small, poorly fitted or top-dose-only effect, or another doubt; inactive = no such curve, though single readings can be large or run the other way;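 note: potency is the fitted concentration of half-maximal effect; plate controls were no enzyme wells and a reference inhibitor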
miR-21 reporter = miR-21 reporter, rising signal | Potency, µM (highest dose often 38.3 µM), for inactives: at the highest dose reporter change, positive = more light | 340,000 tested, under 10 active | HeLa miR-21 FLuc reporter, luciferase, 48 h; active = well fitted rising curve with a large enough effect; inconclusive = small, poorly fitted or top-dose-only effect; inactive = no such curve, though single readings can be large or run the other way;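 note: % of control where 0% means no effect; miR-21 action dims this reporter so a rising signal means less miR-21 action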
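Luminescence from a firefly luciferase reporter carrying a miR-21 binding site downstream, stably expressed under a CMV promoter in HeLa cells that make miR-21 endogenously, reports miRNA modulation after 48 h compound exposure up to approximately 40uM final.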
G9a inh = blocks human histone lysine methyltransferase G9a; Q96KQ7; G9a H3K9 monomethylation, AlphaScreen, 2 h; Potency, µM (series often up to 102 µM), for the others: at the top dose activity, negative = inhibition, hits mostly inhibitors; hit rate 8.8% among 350,000; note: potency is the fitted concentration of half-maximal effect; % is set by controls: 0 for no effect and ±100 for the full control effect; nearly all actives have a fitted effect of over 75% in size
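G9a (20 nM) preincubated 15 min RT with compounds, then 500 nM biotinylated H3K9 peptide and 20 uM SAM added; 2 h RT reaction. Monomethyl-H3K9 product detected by AlphaScreen with anti-H3K9me1 antibody, streptavidin donor and anti-rabbit IgG acceptor beads.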
Numbers without * were called inactive; ? = inconclusive; / = no result; [ ] = remark or other dose. Unless noted, calls come from the whole dose curve; as a rule, active = well fitted curve in the direction sought with a large enough effect; inconclusive = small, poorly fitted or top-dose-only effect, or another doubt; inactive = no such curve, though single readings can be large; an effect the other way counts as inactive or inconclusive.

SMILES	LMNA splice mod	Sfp inh	JMJD2E inh	ALDH1A1 block	miR-21 reporter	G9a inh
O=C(N/N=C/c1ccc(N2CCCC2)c([N+](=O)[O-])c1)c1cccnc1	/	-3%	0%	0.28µM*	-6%	?
O=C(N/N=C/c1ccc(N2CCOCC2)c([N+](=O)[O-])c1)c1ccc(F)cc1	-8%	7%	3%	5µM*	-5%	?
O=C(N/N=C/c1cc2c(cc1[N+](=O)[O-])OCO2)c1cccnc1	/	-16%	-27%	/	-1%	-26%
O=C(NCc1ccc(F)cc1)c1ccc(N2CCOCC2)c([N+](=O)[O-])c1	/	10%	/	/	-13%	3%
Cc1ccc2occ(CC(=O)Nc3c(C)cccc3C)c2c1	/	/	/	/	18%	-8%[59 µM]
O=C(OCC(=O)N1CCc2ccccc2C1)c1ccc(N2CCOCC2)c([N+](=O)[O-])c1	?	1%	3%	20µM*	-4%	40µM*
Cc1ccc(Cl)c(OC(=O)c2ccc(N3CCOCC3)c([N+](=O)[O-])c2)c1	-9%	-7%	-2%	-6%	-8%	28µM*
CCOc1ccc(CCNC(=O)Cn2nnc(-c3ccc(OC)c(OC)c3)n2)cc1OCC	/	/	/	/	-19%	-30%[59 µM]
CCCCCCSC1=C(C#N)C(=O)NC2(CCCCC2)S1	?	19%	-2%	-1%	-40%	13µM*
COc1ccc(CSC2=C(C#N)C(=O)NC3(CCCCC3)S2)cc1	/	/	/	-6%[13.5 µM]	/	/
CC(C)OCCCNC(=O)CN1C(=O)c2cccnc2Sc2ccccc21	6%[46 µM]	/	/	/	2%	-5%[59 µM]
CCN(CC)CCCN=Cc1c(-c2ccccc2)[nH]n(-c2nc3ccccc3s2)c1=O	/	-3%	-10%	/	-8%	/
CCCc1[nH]n(-c2nc3ccccc3s2)c(=O)c1C=NCC(C)C	?	-4%	0%	13µM*	0%	-28%[12.7 µM]
Cc1ccc(NC(=O)CSc2nnc(C3COc4ccccc4O3)o2)c(Cl)c1 (stereo not given)	/	10%	9%	2.8µM*	-5%	6%
Cc1ccc(C)c(NC(=O)CSc2nnc(C3CCCCC3)o2)c1	/	19%	/	/	-6%	13%
O=C(CSc1nnc(C2COc3ccccc3O2)o1)Nc1ccc(F)cc1Cl (stereo not given)	-20%[46 µM]	16%	15%	10µM*	-1%	10%
Cc1ccc(C)c(N2CCN(S(=O)(=O)c3cc(C(=O)Nc4cc(Cl)cc(Cl)c4)ccc3F)CC2)c1	-3%[46 µM]	/	/	/	-3%	1%[59 µM]
Cn1cccc1C(=O)N1CCC2(CC1)CN(C(=O)Nc1cccc(C#N)c1)C2	/	15%	/	28µM*	/	-5%[12.7 µM]
c1ccc2oc(-c3csc(N4CCOCC4)n3)cc2c1	/	56µM*	?	?	-20%	40µM*
Fc1ccc(-c2csc(N3CCOCC3)n2)cc1	/	-15%	6%	/	-55%	/

Just Sfp inh and G9a inh, for some of the entries so far:
SMILES | Sfp inh | G9a inh
O=C(CSc1nnc(C2COc3ccccc3O2)o1)Nc1ccc(F)cc1Cl (stereo not given) | 16% | 10%
Cc1ccc(C)c(N2CCN(S(=O)(=O)c3cc(C(=O)Nc4cc(Cl)cc(Cl)c4)ccc3F)CC2)c1 | / | 1%[59 µM]

Additional results:
SMILES	LMNA splice mod	Sfp inh	JMJD2E inh	ALDH1A1 block	miR-21 reporter	G9a inh
COc1cc(-c2csc(N3CCOCC3)n2)cc(OC)c1OC	17%	?	-11%	?	-2%	56µM*
Cc1cccc(NC(=O)CN(C)C(C)C(=O)Nc2ccc(S(=O)(=O)N3CCCC3)cc2)c1C (stereo not given)	/	/	/	/	/	-6%
CCCn1c(SCC(=O)N2CCN(c3ccc(OC)cc3)CC2)nc2c1c(=O)n(C)c(=O)n2C	?	-4%	-2%	?	10%	50µM*
CCCn1c(SCC(=O)Nc2ccccc2N2CCCCC2)nc2c1c(=O)n(C)c(=O)n2C	-7%	35µM*	-1%	-4%	23%	21%[59 µM]
Cc1ccccc1NC(=O)CSc1nc2c(c(=O)n(C)c(=O)n2C)n1Cc1ccccc1F	/	/	/	/	0%	-5%[59 µM]
CCCn1c(SCC(=O)N2CCCC2)nc2c1c(=O)n(C)c(=O)n2C	-3%	10%	-1%	-7%	-11%	25%
Cc1ccccc1NC(=O)CSc1nc2c(c(=O)n(C)c(=O)n2C)n1C	/	15%	/	/	12%	71µM*
Cc1ccccc1NC(=O)CSc1nc(-c2ccccc2)cn1-c1ccccc1F	-3%[46 µM]	/	/	/	?	11µM*
NC(=O)Cn1cc(/C=N/NC(=O)c2ccc(Cn3cc(Cl)cn3)o2)c(-c2ccccc2)n1	/	13%	/	/	1%	5%
CCOC(=O)CSc1nc2cc3c(cc2c(=O)n1CCCC(=O)NCCc1ccc(OC)c(OC)c1)OCO3	8%[46 µM]	/	/	/	-7%	-4%[59 µM]
CCCn1c(SCC(=O)OCc2ccccc2)nc2c1c(=O)n(C)c(=O)n2C	17%	-13%	2%	22µM*	2%	2%[59 µM]
COc1ccccc1/C=C/C(=O)N1CCN(S(=O)(=O)c2cc(C)ccc2C)CC1	/	/	/	/	/	-1%[12.7 µM]
Cc1c(NS(=O)(=O)c2ccc3c(c2)OCCO3)cccc1-c1nc2cccnc2s1	?	21%	?	16µM*	7%	26%[59 µM]
Cc1cc(-c2nc3cccnc3s2)ccc1NS(=O)(=O)c1ccc2c(c1)OCCO2	?	3%	?	?	-16%	-11%[59 µM]
Cn1c2ccccc2c2ncn(Cc3ccco3)c(=O)c21	14%	-2%	?	?	-28%	3%
Cn1c2ccc(F)cc2c2ncn(Cc3ccco3)c(=O)c21	5%	50µM*	?	?	-19%	-28%[59 µM]
CCCCn1c(=O)n(Cc2cccc(F)c2)c(=O)c2c1ncn2Cc1ccco1	-9%	40µM*	0%	?	1%	5%[12.7 µM]
Cc1noc(C)c1COC(=O)CCCc1c[nH]c2ccccc12	5%	50µM*	?	14µM*	2%	-34%[59 µM]
Cc1noc(C)c1COC(=O)C(c1ccccc1)c1ccccc1	-17%[46 µM]	-16%	3%	11µM*	0%	115%
Cc1noc(C)c1COC(=O)c1cc2c3ccccc3n(C)c2s1	?	?	?	?	-17%	40µM*

Single records (already shown). Order of values: LMNA splice mod, Sfp inh, JMJD2E inh, ALDH1A1 block, miR-21 reporter, G9a inh
NC(=O)Cn1cc(/C=N/NC(=O)c2ccc(Cn3cc(Cl)cn3)o2)c(-c2ccccc2)n1 as listed: /, 13%, /, /, 1%, 5%
CCCc1[nH]n(-c2nc3ccccc3s2)c(=O)c1C=NCC(C)C as listed: ?, -4%, 0%, 13µM*, 0%, -28%[12.7 µM]
CCCCn1c(=O)n(Cc2cccc(F)c2)c(=O)c2c1ncn2Cc1ccco1 as listed: -9%, 40µM*, 0%, ?, 1%, 5%[12.7 µM]

(listing goes on)
SMILES	LMNA splice mod	Sfp inh	JMJD2E inh	ALDH1A1 block	miR-21 reporter	G9a inh
CCOc1ccc(NC(=O)CN2C(=O)COc3ccc(S(=O)(=O)Nc4ccccc4)cc32)cc1	/	/	/	/	-1%	-31%[59 µM]
Cc1ccc(-c2ccc(/C=N/N3C(=O)C4C5C=CC(C6CC56)C4C3=O)o2)c([N+](=O)[O-])c1 (stereo not given)	9%	7%	-5%	?	-10%	45µM*
O=C1C2C(C(=O)N1/N=C/c1ccc([N+](=O)[O-])o1)C1C=CC2C12CC2 (stereo not given)	?	21%	-6%	?	15%	-10%[59 µM]
O=C1C2C3C=CC(C4CC34)C2C(=O)N1/N=C/c1ccc([N+](=O)[O-])o1 (stereo not given)	/	5%	-7%	3.2µM*	16%	?
O=C1C2C3C=CC(C3)C2C(=O)N1/N=C/c1ccc(-c2ccccc2[N+](=O)[O-])o1 (stereo not given)	?	6%	7%	2.2µM*	-36%	-10%[59 µM]
O=C1C2C3C=CC(C4CC34)C2C(=O)N1/N=C/c1ccc(-c2ccc([N+](=O)[O-])cc2)o1 (stereo not given)	?	-2%	7%	-2%	4%	4%[59 µM]

Screening results: PubChem BioAssay, National Center for Advancing Translational Sciences (NCATS)
